# Values quoted from earlier work as cited in publication PMC9728581, “Population pharmacokinetics and dosing optimization of unbound teicoplanin in Chinese adult patients” (Frontiers in Pharmacology, 2022).
# Settings: cited from earlier work
substance,measurement,setting,value
teicoplanin,clearance of unbound teicoplanin in the previous study,"ref Byrne et al., 2018",7.29 L/h
same,"volume of distribution of total teicoplanin, previous PopPK study","ref Fu et al., 2021",83.1 L
same,half-life of elimination,"ref Li and Wang, 2016, Gao et al., 2020",30 to 180 h
